Results published in US20260070927A1, “INDAZOLE MACROCYCLES FOR THE TREATMENT OF AUTOIMMUNE DISEASE” (Hoffmann-La Roche Inc., priority 2022, published 2026).

Protein sequences, listed by entry. Tags and fused reporters are not part of them. Residues count along the entry.
UniProt Q86WV6, 139-379 limits assumed: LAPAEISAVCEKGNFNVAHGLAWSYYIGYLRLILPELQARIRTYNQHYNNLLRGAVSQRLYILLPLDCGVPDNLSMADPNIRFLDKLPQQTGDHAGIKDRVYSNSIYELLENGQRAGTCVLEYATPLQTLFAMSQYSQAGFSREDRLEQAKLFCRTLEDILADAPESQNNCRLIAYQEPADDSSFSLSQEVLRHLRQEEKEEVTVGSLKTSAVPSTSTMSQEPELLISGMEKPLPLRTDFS

Legend:
[1] = target: human stimulator of interferon genes (STING) (139-379) (Homo sapiens (Human), UniProt Q86WV6); assay: Microliter plate-based TR-FRET competition-binding assay for binders of STING; conditions: read-out: FRET_IC50, Alexa488 probe
Method: This is the competition-binding assay to test the compounds' potency to the C-terminal Domain (CTD) and ligand-binding domain of human stimulator of interferon genes (STING). STING (139-379, Q86WV6, http://www.uniprot.org/uniprot) recombinant protein (in 20 mM Tris, 150 mM NaCl, pH 8.0, and expression in Escherichia coli (E. coli) BL21 (DE3)) with a C-terminal flag-tag was employed for the assay. When Alexa-488 labeled active site probe (refer to patent WO2017/175156 A1) bounds to STING (139-379), it accepts the 485 nm emission from Tb-M2-Flag-STING and results in an increase in fluorescence at 520 nm. Compounds that compete for the probe-binding site will reduce 520 nm signal. […] Plates were centrifuged for 1 min at 1000 rpm, incubated for 30 min at room temperature, and then measured the dual fluorescence emission at 520 nm/485 nM following 320 nm laser excitation on an Envision plate reader (Perkin-Elmer). The compounds' effect on the STING binding is detected by measuring ratiometric fluorescence from time-resolved FRET. The percentage of inhibition of at each compound concentration is calculated on the basis of their changes of TR-FRET efficiency relative to the change of TR-FRET caused by positive control 2′3′cGAMP (Sigma, cat: SML1229).

STING (IFN-β in hPBMC) = assay: hPBMC cytokine functional assay (IFN-β decrease after Baculovirus stimulation); format: cell-based, human; conditions: read-out: hPBMC_IC50, Baculovirus MOI 40, 24 hours
Method: The inhibition of STING by compounds could be measured by the decrease of IFN-β in hPBMC, which is stimulated by a double stranded DNA virus Baculoviurs (Purchased from Genescript, pCMV-Dest Vector virus generation P2 BV stock virus, Sf-900 II medium with 5% FBS, Lot C9835DK230-2/P4DL001). Frozen hPBMC cells (purchased from Stemcell Technologies, cat number is 70025, Lot 191070803C) were thawed at 37° C. water bath, then cells were re-suspended in 50 ml tube using 20 ml Cell culture medium, and then centrifuged for 5 min at 2000 rpm before the supernatant was removed carefully. The cells were re-suspended in culture medium (RPMI-1640 with 1.5 g/L NaHCO3, 4.5 g/L glucose, 10 mM HEPES and 1 mM Na-pyruvate, 10% HI-FBS); 65 μL of the cell suspension was dispensed into 384 well plate (70K cells/well) by Multidrop Combi with at least 3 hours incubation at 37° C., 5% CO2 cell incubator.
Then 4 μL of compound solution per well (final 0.5% DMSO) was transferred by Agilent Bravo followed by infection with 11 μL of Baculovirus at a final MOI of 40. The level of IFN-β secreted in the supernatant of hPBMC was determined after 24 hours of incubation at 37° C. cell incubator by human IFN-β HTRF assay (Cisbio, cat: 62HIFNBPEH) following the manufacture's instruction. CellTiter-Glo kit (Promega, cat: G7573) was applied for the cell viability evaluation using Envision.

CN1CCCc2c3c(cccc3nn2C)-c2nccc(n2)N[C@H]2C[C@@H](C1=O)N(c1ncnc3c1cnn3-c1ccc(F)cc1F)C2
pIC50 [1]: 9.70
pIC50 (STING (IFN-β in hPBMC)): 6.40

pIC50: −log10 of the molar value.
